Data: ChEMBL document CHEMBL3638841, “Aryl- and heteroaryl-substituted tetrahydroisoquinolines and use thereof to block reuptake of norepinephrine, dopamine, and serotonin” (2015)

The chains behind the UniProt entries cited, without tags or fusion partners.
UniProt P23975, whole entry: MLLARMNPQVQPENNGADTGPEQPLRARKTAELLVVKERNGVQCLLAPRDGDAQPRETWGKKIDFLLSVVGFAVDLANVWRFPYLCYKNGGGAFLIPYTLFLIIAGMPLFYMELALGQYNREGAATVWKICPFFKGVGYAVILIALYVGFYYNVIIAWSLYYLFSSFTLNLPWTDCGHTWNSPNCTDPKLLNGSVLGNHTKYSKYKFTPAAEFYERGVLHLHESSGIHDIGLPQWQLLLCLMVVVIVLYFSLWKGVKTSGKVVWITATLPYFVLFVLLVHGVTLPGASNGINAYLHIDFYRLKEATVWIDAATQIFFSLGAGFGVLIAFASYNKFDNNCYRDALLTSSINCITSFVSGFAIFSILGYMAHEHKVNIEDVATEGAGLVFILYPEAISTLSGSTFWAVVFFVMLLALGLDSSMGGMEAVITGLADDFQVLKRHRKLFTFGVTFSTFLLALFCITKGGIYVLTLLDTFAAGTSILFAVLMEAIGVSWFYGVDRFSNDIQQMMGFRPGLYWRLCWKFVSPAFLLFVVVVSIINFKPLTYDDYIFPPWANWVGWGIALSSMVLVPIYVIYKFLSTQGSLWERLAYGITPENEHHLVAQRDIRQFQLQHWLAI

Molecular target: Sodium-dependent noradrenaline transporter (Homo sapiens, UniProt P23975)
Experiment: Binding Assay: In order to evaluate the relative affinity of the various compounds at the NE, DA and 5HT transporters, HEK293E cell lines were developed to express each of the three human transporters. cDNAs containing the complete coding regions of each transporter were amplified by PCR from human brain libraries. The cDNAs contained in pCRII vectors were sequenced to verify their identity and …
Format: cell-based

`CN1Cc2ccccc2C(c2ccc3[nH]ncc3c2)C1Cl` (stereo unspecified) was tested. Which Ki did it give?
Its Ki is 2.6 nM.
